# Some of the results follow.
# Tested on: A. baumannii ATCC 17978
# Assay: relative growth (fraction of control); higher = less inhibition
# Details: 50 µM
row,SMILES,relative growth
1,C[N+](C)(C)CC(=O)[O-].Cl,1
2,C#CCOS(=O)OC1CCCCC1Oc1ccc(C(C)(C)C)cc1 (stereo unspecified),1.26
3,O=c1[nH]c2cc(N3CCNCC3)ccc2o1,1.08
4,C=C(C)c1cc2cc(C(C)=O)c(O)cc2o1,1.17
5,COc1ccc(C(=O)O[C@H]2CC[C@@]3(C)[C@@H]4CC[C@H]5[C@]6(O)C[C@H](O)[C@@]7(O)[C@@H](CN8C[C@@H](C)CC[C@H]8[C@@]7(C)O)[C@]6(O)C[C@@]53O[C@]24O)cc1OC,0.964
6,COP(=S)(OC)Oc1ccc([N+](=O)[O-])cc1,1.02
7,CC1=NCCc2c1[nH]c1cc(O)ccc21.Cl.O.O,1.13
8,CC(=O)NN1Cc2ccccc2C1=N,1.21
9,CSC1=NN1c1cc(C)nc(N)n1,1.11
10,Fc1ccc(Oc2ccnc3cc(Cl)cc(Cl)c23)cc1,1.11
11,CC1(C)[C@@H](C=C(Br)Br)[C@@H]1C(=O)O[C@@H](C#N)c1cccc(Oc2ccccc2)c1,1.02
12,Cc1[nH]c2ccccc2c1CCN,1.05
13,COc1cc([C@@H]2c3cc4c(cc3[C@H](O)[C@H]3COC(=O)[C@@H]23)OCO4)cc(OC)c1OC,1.13
14,COc1ccc([C@H]2CC(=O)N3CCNC[C@@H]23)cc1,0.948
15,COC(=O)C[C@@H](CN)c1ccc(Cl)cc1,0.992
16,CCCCCCCCCCCCCCCC[N+](C)(C)C.[Br-],0.193
17,C=C(C)[C@@H]1[C@H]2OC(=O)[C@@H]1[C@]1(O)C[C@H]3O[C@]34C(=O)O[C@H]2[C@]14C,1.17
18,O=C1C=C2C=C[C@@H]3C[C@@]2(O1)[C@H]1CCCCN31,1.04
19,NCCO.NCCO.O[AsH]O[AsH]O (stereo unspecified),1.11
20,COc1ccc(C2(CN)CCCC2)cc1,1.03
21,CC(C)=CC1C(C(=O)OCc2cccc(Oc3ccccc3)c2)C1(C)C (stereo unspecified),1
22,C[C@@H]1O[C@@H](O[C@@H]2C=C3CCC4C(CC[C@]5(C)[C@@H](c6ccc(=O)oc6)CC[C@]45O)[C@@]3(C)CC2)C(O)C(O)[C@H]1O (stereo partly specified),0.965

row,SMILES,relative growth
1,CC(=O)OC1CC[C@@]2(C)C(CCC3C2CC[C@]2(C)C(C4=CC(=O)OC4)C(OC(C)=O)CC32O)C1 (stereo partly specified),0.927
2,CN1C(=O)/C(=C/c2cn(CC(=O)N3CCOCC3)c3ccccc23)C(=O)NC1=S,1.22
3,NC(=O)CN1CC(O)CC1=O (stereo unspecified),0.922
4,CC(C)C[C@@H]1NC[C@@H]2CCCN2C1=O,0.931
5,COc1ccn(C)c(=O)c1C#N,1.08
6,CC(=O)NCCSS(C)(=O)=O.CN(C)c1ccc2c(-c3ccccc3C(=O)O)c3ccc(N(C)C)cc3[o+]c2c1,1.04
7,CC(=O)O[C@@H]1CC2C(C)(C)C(=O)C=C[C@]2(C)C2CC[C@]3(C)C(=CC(=O)O[C@H]3c3ccoc3)[C@@]21C (stereo partly specified),1.14
8,C[C@@H](N)[C@@H](O)c1ccccc1.Cl,1.07
9,COc1ccc(C2(CN)CCOCC2)cc1,0.946
10,Nc1ccncc1,1.03
11,CN(C)Cc1c[nH]c2ccccc12,1.05
12,Cn1ccnc1N1CCNCC1,1.02
13,CN1C(=O)NC(=O)/C(=C\c2ccc(O)cc2)C1=O,0.976
14,O=C(O)CCCc1ccc(N(CCCl)CCCl)cc1,0.942
15,CC[C@@]1(O)C[C@H](O)c2c(cc3c(c2O)C(=O)c2c(O)ccc(O)c2C3=O)[C@H]1C(=O)OC,1.11
16,CC[C@@H](C(N)=O)N1CCCC1=O,1.22
17,COC(=O)[C@@H]1C[C@H](OC(C)=O)C(=O)[C@H]2[C@@]1(C)CC[C@H]1C(=O)O[C@H](c3ccoc3)C[C@]21C,0.916
18,CC[C@@H](C(=O)[C@@H](C)[C@@H](O)[C@H](C)[C@@H]1O[C@@H]([C@@H](CC)C(=O)[O-])CC[C@@H]1C)[C@H]1OC2(C=C[C@@H](O)[C@]3(CC[C@@](C)([C@H]4CC[C@](O)(CC)[C@H](C)O4)O3)O2)[C@H](C)C[C@@H]1C.[Na+] (stereo partly specified),0.966
19,CN1C2CC[C@@H]1C[C@@H](OC(=O)[C@H](CO)c1ccccc1)C2,0.933
20,COc1ccc(C(=O)N2CCCC2=O)cc1,1.01
21,CN(C)C(=O)[C@@]1(Cc2ccccc2CN=[N+]=[N-])N=C(c2ccc(OCCCO)cc2)O[C@H]1c1ccccc1N=[N+]=[N-],1
22,C[C@]12CCC3C(CC[C@H]4C[C@@H](O)CC[C@]34C)C1CCC2=O (stereo partly specified),0.983

row,SMILES,relative growth
1,CCCCCCCCCCCCCC(=O)O[C@@H]1[C@@H](C)[C@@]2(O)[C@@H](C=C(CO)C[C@]3(O)C(=O)C(C)=C[C@@H]23)[C@@H]2C(C)(C)[C@]12OC(C)=O,1.28
2,Cc1nc(N2CCN(C)CC2)ccc1N,0.968
3,CC1=NCCN=C(C)C1N1CCOCC1,1.09
4,NCCc1ccc(C(=O)c2ccccc2)cc1,1.02
5,C[C@H](CO)N1C[C@H](C)[C@@H](CN(C)C(=O)Oc2ccc3ccccc3c2)OCc2cnnn2CCCC1=O,1.15
6,CO[C@H]1[C@H](O)[C@@H](O[C@H]2CC[C@]3(C=O)C4CC[C@]5(C)[C@@H](C6=CC(=O)OC6)CC[C@]5(O)C4CC[C@@H]3C2)O[C@@H](C)[C@@H]1O (stereo partly specified),1.2
7,Cn1cc([C@@]23C[C@]2(C)COC3=O)cn1,1.19
8,Cc1nccc2c1[nH]c1ccccc12,0.532
9,NCC[C@H]1COc2ccccc2O1,0.957
10,Cl.NCC(CC(=O)O)c1ccc(Cl)cc1 (racemic),1.23
11,COCCCNC(=O)[C@@]1(Cc2ccccc2CN=[N+]=[N-])N=C(c2ccc(OCCCO)cc2)O[C@H]1c1ccccc1CN=[N+]=[N-],0.969
12,Cc1n[nH]c(=O)nc1N1CCN(C)CC1,1.01
13,O=[N+]([O-])c1cc([As](=O)(O)O)ccc1O,1.01
14,CC(C)(C)[C@H]1CC[C@@]2(CC1)C[C@@H](C[Si](C)(C)C)OO2,1.05
15,CNCC(=O)c1ccc(O)c(O)c1.Cl,0.892
16,CCC1(c2ccc(N)cc2)CCC(=O)NC1=O (stereo unspecified),0.909
17,Cl.N=C(N)NN,0.995
18,C[C@@]1(C(=O)O)[C@H]2CC[C@@H](O2)[C@@]1(C)C(=O)O,1.03
19,C[C@@H]1C[C@@H]([C@H](O)CC2CC(=O)NC(=O)C2)C(=O)[C@@H](C)C1,0.938
20,C=C[C@H]1CN2CC[C@H]1CC2C(OC(=O)OCC)c1ccnc2ccc(OC)cc12 (stereo in doubt),0.94
21,[N-]=[N+]=CC(=O)OCC(N)C(=O)O (stereo unspecified),1.03
22,NCCc1ccc(O)cc1,1.17

row,SMILES,relative growth
1,C[CH2][Hg][S]c1ccccc1C(=O)[O-].[Na+],0.159
2,CC(=O)CC1CCCCN1.Cl (stereo unspecified),0.989
3,CCCC(=O)c1c(O)[nH]c(=O)[nH]c1=O,0.926
4,C=CCN1CCC23c4c5ccc(O)c4O[C@H]2C(=O)CC[C@@]3(O)[C@H]1C5.Cl,1.08
5,CN1CCN([C@@H](CN)c2ccc3c(c2)OCO3)CC1,0.914
6,NC(=O)C[S@@](=O)C(c1ccccc1)c1ccccc1,1.16
7,N=C1NC(=O)N2CC12 (stereo unspecified),1.15
8,[O-][n+]1ccccc1[S][Zn][S]c1cccc[n+]1[O-],0.151
9,CN1[C@@H]2CC[C@@H]1CC(O)C2 (stereo partly specified),0.916
10,COc1ccc(O)c(C(C)(C)C)c1,1.07
11,COc1ccc2c3c([nH]c2c1)C(C)=NCC3,0.804
12,O=C(O)/C=C\C(=O)O.c1ccc2nc(N3CCNCC3)ccc2c1,1.09
13,CCN1C(=O)/C(=C/c2ccc[nH]2)C(=O)NC1=S,0.934
14,O=C(N/N=C/c1ccc([N+](=O)[O-])o1)c1cc([N+](=O)[O-])cc([N+](=O)[O-])c1O,0.866
15,CC[n+]1c(-c2ccccc2)c2cc(N)ccc2c2ccc(N)cc21.[Br-],0.937
16,COc1ccc(C=O)cc1,1.02
17,C=C(C)C1Cc2c(ccc3c(=O)c4c(oc23)COc2cc(OC)c(OC)cc2-4)O1 (stereo unspecified),1.23
18,CCC1(CC)C(=O)C=CNC1=O,0.866
19,CC(C)(C)OC(=O)N1C[C@H]2C[C@@H]1CN2,0.985
20,CC(C)C12CN3CCN(CC(C3)C1=O)C2,0.879
21,CC1CC[C@]2(NC1)O[C@H]1CC3C4CC[C@H]5C[C@@H](O)CC[C@]5(C)C4CC[C@]3(C)[C@H]1[C@@H]2C.Cl (stereo partly specified),1.15
22,Cl.Oc1noc2c1CCNC2,0.874

row,SMILES,relative growth
1,O=C(NC(=O)c1c(F)cccc1F)Nc1cc(Cl)c(OC(F)(F)C(F)C(F)(F)F)cc1Cl (stereo unspecified),1.22
2,O=S(=O)(O)O.Oc1cccc2cccnc12,0.18
3,CC1=C2[C@H]3OC(=O)C(C)[C@@H]3CC[C@@]2(C)C=CC1=O (stereo partly specified),0.91
4,COC(=O)C1=CCCN(C)C1,1.13
5,C=C(C)[C@H]1Cc2c(ccc3c2O[C@@H]2COc4cc(OC)c(OC)cc4[C@@H]2C3=O)O1,0.968
6,COC(=O)[C@]1(Cc2ccccc2CN=[N+]=[N-])N=C(c2ccc(OCCCO)cc2)O[C@@H]1c1ccccc1N=[N+]=[N-],1.18
7,COP(=O)(OC)OC(Br)C(Cl)(Cl)Br (stereo unspecified),1.26
8,COC1=CC(=O)OC(/C=C/c2ccccc2)C1 (stereo unspecified),0.899
9,CC(=O)O[C@@H]1C2CC[C@@H]3C1(C[C@@H](O)[C@@]1(O)[C@@H](C[C@H](O)C1(C)C)[C@]3(C)O)C[C@@]2(C)O (stereo partly specified),1.13
10,Cl.NCC(O)c1ccc(O)cc1 (stereo unspecified),0.968
11,O=C1C=C2C(=CCOC2O)O1 (stereo unspecified),0.122
12,O=c1cccc2n1C[C@H]1CNCC2C1,1.14
13,N#CC(O[C@@H]1O[C@H](CO[C@@H]2O[C@H](CO)[C@@H](O)[C@H](O)[C@H]2O)[C@@H](O)[C@H](O)[C@H]1O)c1ccccc1 (stereo partly specified),1.01
14,CN[C@@H](C)[C@@H](O)c1ccccc1.Cl,1.32
15,CC1(C)C(C=C(Cl)Cl)C1C(=O)OC(C#N)c1cccc(Oc2ccccc2)c1 (stereo unspecified),1.11
16,Oc1cc(Cl)ccc1Oc1ccc(Cl)cc1Cl,0.153
17,CC1=CCC[C@@H]2C1(C)CCC(C)[C@@]2(C)CC/C(C)=C/Cn1c[n+](C)c2c(N)ncnc21.[Cl-] (stereo partly specified),0.816
18,C[C@]12CC[C@H](O)CC1=CCC1C2CC[C@]2(C)C(=O)CC[C@@H]12 (stereo partly specified),1.09

# From published antibiotic growth screens (doi:10.1038/s41589-023-01349-8)
